Assay results: paper PMC2850272 (Bioorganic & medicinal chemistry, 2010)

Details: pH 7.4

Substance	Permeability (PAMPA)
(2-(Benzo[d][1,3]dioxol-5-yl)-5-methoxyquinolin-3-yl)methanol [29b]	644±20 10^−6 cm/s
(2-(Benzo[d][1,3]dioxol-5-yl)-7-methoxyquinolin-3-yl)methanol [29a]	356±22 10^−6 cm/s
